Ab-14 light chain CDR variants: yeast mating affinities

All variants were tested on one target, the spike HR2 peptide PDVDLGDISGINAS (SARS-CoV-2).

Ab-14 is the parent antibody, in scFv form: VH, then a 15-residue (Gly4Ser)3 linker, then VL. The heavy chain is unchanged in all variants.
VH: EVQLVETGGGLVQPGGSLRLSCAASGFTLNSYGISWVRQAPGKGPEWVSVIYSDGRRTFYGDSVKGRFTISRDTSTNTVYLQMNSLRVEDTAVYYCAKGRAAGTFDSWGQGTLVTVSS
VL: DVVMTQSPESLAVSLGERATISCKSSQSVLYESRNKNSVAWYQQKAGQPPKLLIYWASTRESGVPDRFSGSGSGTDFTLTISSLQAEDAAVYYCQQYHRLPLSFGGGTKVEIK

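These sequences belong to a second round, designed from the earlier measurements on random variants of the parent. Several design methods are mixed in this list. The assay is AlphaSeq: two haploid yeast populations carry antibody and antigen on their surface. After mating in shaken culture at 30 °C for 16 h, diploids were selected and their barcode pairs sequenced. Each replicate has its own calibration line, from reference interactions of the BCL2 family. The assay was run in six technical replicates.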

Each variant is given by its three light chain CDRs, as the data file delimits them; those of the parent are KSSQSVLYESRNKNSVA, WASTRES, QQYHRLPLS. Variants here have at most six changes. Values are log10 of the apparent Kd in nM; lower means stronger binding. Averages over replicates are reported, and they cover detected replicates only. "ND" marks a missing value. The strain was present, yet no cells mated with the target were sequenced in that replicate, which points to weak or no binding.

With KLQQSVLYESRNKNSVA / HASTRED / KQYHRLPLS the result was 1.90, 1.25, 0.57, 0.51, 0.90, 1.86 (mean 1.17; controls 0 of 18). Variant KLQQSWLYESRNKNSVA / DASQRES / QQYHRLPLS gave -0.15, -0.27, -0.23, -0.30, -0.27, -0.15 (mean -0.23; controls 2 of 18). Variant KSSQSELYESRNGNSVA / NASYRED / QQYHRLPLS gave 0.04, 0.19, 0.58, -0.15, -0.05, 0.13 (mean 0.12; controls 0 of 18). Variant KLYQSWLYESRNKNSVA / NASQRES / QQYHRLPLS gave -0.08, -0.21, -0.23, -0.65, -0.14, 0.11 (mean -0.20; controls 2 of 18). For KLDQSVLYESRNKNSVA / SASTRES / QQYHRLPLS, the assay gave -0.21, -0.31, -0.13, -0.71, -0.45, -0.01 (mean -0.30; controls 0 of 18). For KLPQQTLYETRNKNSVA / WASTREE / QQYHRLPLS, the assay gave 0.01, -0.13, -0.25, -0.19, 0.01, 0.36 (mean -0.03; controls 0 of 18).

With KMEQGVLYESRNKQSVA / GASVRES / QQYHRLPLS the result was 0.07, 0.02, -0.16, -0.16, -0.23, -0.22 (mean -0.11; controls 2 of 18). Variant KVSQSVLYESGTKNSVA / NASDRES / QQYHRLPLS showed 0.80, 0.30, 0.39, 0.29, 0.11, 0.38 (mean 0.38; controls 1 of 18). With KSSQSVGYESRCKNSVA / SASTRES / QQYHRLPLS the result was 1.44, 1.36, 1.07, 1.15, 1.03, 1.33 (mean 1.23; controls 0 of 18). Variant KVSQSVLYESRMKNSVA / DASTRES / QQYHRLPLS gave -0.35, -0.39, -0.24, -0.41, -0.31, -0.18 (mean -0.31; controls 0 of 18). Variant KFSPSVLYESRLKNSVA / NASTRES / QQYHRLPLS showed 1.38, 1.30, 0.74, 0.13, 0.33, 1.24 (mean 0.86; controls 2 of 18). Variant KLSMSDLYESRNKNSVA / NASTRES / QQYHRLPLS showed 0.39, 0.36, 0.12, 0.30, 0.61, 0.39 (mean 0.36; controls 0 of 18).

For HSSPSVLYESRNKNSVA / NASTRES / QQYHRLPLF, the assay gave 0.06, -0.20, -0.09, -0.20, -0.05, -0.08 (mean -0.10; controls 0 of 18). Variant KLDQSWLYESRNKNSVA / GASTRES / QQYHRLPLS showed -0.24, -0.36, -0.40, -0.43, -0.33, -0.41 (mean -0.36; controls 1 of 18). With KLSQSVDYESRNKNNVA / HASTRES / QQYHRLPLS the result was -0.40, -0.68, -0.76, -0.68, -0.54, -0.56 (mean -0.60; controls 1 of 18). For KSSQSWEYESRNKNSVA / GASTRES / QQYHRLPLS, the assay gave -0.30, -0.35, -0.45, -0.48, -0.54, -0.41 (mean -0.42; controls 0 of 18). Variant KSSQSVLYESRNKNQVA / WASTRSS / QQYHRLTLS showed ND, 1.48, ND, ND, 1.48, 0.86 (mean 1.27; controls 1 of 18). With KLQQSWLYESRNKNNVA / NASQRES / QQYHRLPLS the result was -0.57, -0.50, -0.70, -0.79, -0.57, -0.50 (mean -0.60; controls 1 of 18).

For ISSQPVLYESRNKNSVA / NASTRES / QQYHRLPLS, the assay gave 0.78, 0.51, 0.72, 0.68, 0.62, 0.82 (mean 0.69; controls 1 of 18). Variant KLMQSVLYESRNKNSVA / GASTRLS / QQYHRLPLS gave 0.44, 0.32, 0.40, 0.19, 0.41, 0.20 (mean 0.33; controls 1 of 18). For KLQQSHLYESRNKNSVA / NASTRMS / QQYHRLPLS, the assay gave 0.37, 0.18, 0.36, 0.19, 0.22, 0.35 (mean 0.28; controls 1 of 18). Variant KSSQSVLYEERNKNSVA / WASTRES / QQYHSLPLS showed ND, 3.05, ND, ND, 3.20, ND (mean 3.12; controls 1 of 18). For KMSQSVLYEDRNKNSVA / NASTRMS / QQYHRLPLS, the assay gave 0.14, -0.06, -0.13, -0.37, -0.20, 0.14 (mean -0.08; controls 1 of 18). Variant KSKQSVLYESTNKNSVA / YASTRES / QQYHRLPLS showed 2.19, 1.98, 1.90, 2.18, 1.33, 2.14 (mean 1.95; controls 2 of 18).

For KISQSVEYESRDKNSVA / NASTRCQ / QQYHRLPLS, the assay gave 0.17, 0.00, 0.28, -0.18, 0.08, 0.15 (mean 0.08; controls 0 of 18). For KSSLSYLYESRNENSVA / EASTREQ / QQYHRLPLS, the assay gave 0.86, 0.45, 0.42, 0.31, 0.19, 0.44 (mean 0.45; controls 3 of 18). Variant KHSQSVLYESRNKNSIA / WASTRES / QQYHRLPLS gave ND, ND, ND, ND, ND, ND (controls 0 of 18). With KLSQSVLYESRNKNSVA / HASTREV / QQYHRLPLS the result was 0.12, -0.02, 0.09, -0.01, 0.05, 0.16 (mean 0.07; controls 3 of 18). For KISQSVLMEWRNKNSVA / SASTRES / QQYHRLPLS, the assay gave 0.34, 0.40, 0.45, 0.29, 0.30, 0.26 (mean 0.34; controls 1 of 18). For KSSYSTLYESRNKNSVA / WASTRES / QQYKRLPLS, the assay gave ND, ND, ND, ND, ND, 1.93 (controls 0 of 18).

Variant KSYQSVEYESRNKKSVA / WGSTRSS / QQYHRLPLS gave ND, ND, ND, ND, ND, ND (controls 1 of 18). Variant KQSQSVLYESGNKNSVA / DASTRES / QQYHRLPLS gave 0.29, 0.34, 0.14, 0.02, 0.07, 0.32 (mean 0.20; controls 3 of 18). Variant HLSPSVLYESRNKNSVA / NGSTREV / QQYHRLPLS showed -0.31, -0.47, -0.19, -0.49, -0.52, -0.36 (mean -0.39; controls 0 of 18). For KSSQSVLYPSRNKNSVA / SASTRES / QQYHVLPLS, the assay gave 1.25, 1.06, 1.01, 1.10, 1.00, 1.23 (mean 1.11; controls 2 of 18). Variant KSSYSYLGESRNKNSVA / EASTRES / QQYHRLPLS gave -0.32, -0.38, -0.33, -0.03, -0.17, -0.22 (mean -0.24; controls 0 of 18). Variant KFSQGFLYEERNKNSVA / HASQRES / QQYHRLPLS gave -0.17, -0.32, -0.44, -0.40, -0.28, -0.09 (mean -0.28; controls 0 of 18).

For KISQSVLKESRKKNDVA / WASTRES / QQYHREPLS, the assay gave ND, ND, ND, ND, ND, ND (controls 0 of 18). With IVSQSMLGESRNKNSVA / NASTREH / QQYHRLPLS the result was 0.21, 0.07, -0.10, 0.11, 0.06, -0.05 (mean 0.05; controls 2 of 18). For KLSQSDLYESRNPNSVA / NASTRES / QQYHRLPLS, the assay gave -0.30, -0.41, -0.63, -0.84, -0.73, -0.47 (mean -0.56; controls 0 of 18). With KSSQSVLFESRNKNSVA / DASTRES / QQYHRLCLS the result was -0.19, 0.74, -0.26, 0.51, 1.28, 0.58 (mean 0.44; controls 0 of 18). Variant KLAQSVLYESRNKNSVA / NASTRES / QQYHRLPLS gave -0.05, -0.53, -0.30, -0.90, -0.16, -0.01 (mean -0.33; controls 0 of 18). Variant KSSFSYLYESRNKNSVA / AASTRES / QQYHRLPLS showed ND, 1.63, 0.73, 0.79, 1.38, 1.20 (mean 1.15; controls 0 of 18).

For KVIQSVLYESRNKNSVA / MASTRES / QQYHRLPLS, the assay gave 1.46, 0.63, 1.01, 0.85, 0.82, 0.38 (mean 0.86; controls 2 of 18). Variant KSSQSVLYESNNKNSVA / HASTRED / QQYHRLPLS showed 1.03, 0.91, 0.54, 1.00, 0.60, 1.07 (mean 0.86; controls 3 of 18). For KQSQSVLYPSRNKNSVA / WASERES / QQYHVLPLS, the assay gave ND, ND, 2.33, ND, ND, ND (controls 0 of 18). With KLSQSWLYESRLKNSVA / NASQRES / QQYHRLPLS the result was 0.94, 0.43, 0.48, 0.27, 0.63, 0.58 (mean 0.55; controls 2 of 18). Variant KLEQGQLYESRNKNSVA / NASTRES / QQYHRLPLS showed -0.22, -0.42, -0.31, -0.55, -0.42, -0.23 (mean -0.36; controls 0 of 18). Variant KSSQSVLYESMNENSVA / WASTRES / QQYHRLPLS gave ND, ND, 2.23, ND, ND, ND (controls 2 of 18).

For KSSQSFLYESRNSNSVA / GASTRES / QQYHRLPLS, the assay gave 0.14, -0.10, -0.23, -0.10, -0.23, 0.04 (mean -0.08; controls 1 of 18). With KLQWSVLYSSRNKNSVA / NASTRES / QQYHRLPLS the result was 0.22, 0.33, 0.15, 0.08, 0.10, 0.22 (mean 0.18; controls 2 of 18). Variant KSSQSVWYESTNKNSVA / WASTRES / QQYHRLPLS gave 1.41, 1.49, 1.39, 1.44, 1.73, 1.52 (mean 1.50; controls 2 of 18).

Again, the first 3 entries without any signal:

{"CDR-L1": "KHSQSVLYESRNKNSIA", "CDR-L2": "WASTRES", "CDR-L3": "QQYHRLPLS", "log10 Kd, replicates": "ND, ND, ND, ND, ND, ND", "log10 Kd (nM), mean": "ND", "empty controls": "0/18"}
{"CDR-L1": "KSYQSVEYESRNKKSVA", "CDR-L2": "WGSTRSS", "CDR-L3": "QQYHRLPLS", "log10 Kd, replicates": "ND, ND, ND, ND, ND, ND", "log10 Kd (nM), mean": "ND", "empty controls": "1/18"}
{"CDR-L1": "KISQSVLKESRKKNDVA", "CDR-L2": "WASTRES", "CDR-L3": "QQYHREPLS", "log10 Kd, replicates": "ND, ND, ND, ND, ND, ND", "log10 Kd (nM), mean": "ND", "empty controls": "0/18"}

Values of this round are not directly comparable with the first-round values of the same sequences. In the paper, a design with two or fewer of six values counts as a poor binder. As a blank, each scFv also met three strains without target: over all light chain designs, 4% of these pairings were detected, typically at 2.64 and seldom below 1.59. For each scFv, signals with the empty controls are counted beside the result. Of ten entries with the parent sequence, four were seen in most replicates (averages 0.34 to 2.37), three in one and three in none, so single entries are noisy.

From the AlphaSeq antibody data of Li et al. 2023 (doi:10.1038/s41467-023-39022-2), copy in the FLAb collection.